Target: T1, human recombinant α1a adrenoceptor (Homo sapiens, UniProt P35348)
T1 construct: expressed in transfected cells; host or cells: CHO cells (membranes)
T1 sequence (P35348 1-466): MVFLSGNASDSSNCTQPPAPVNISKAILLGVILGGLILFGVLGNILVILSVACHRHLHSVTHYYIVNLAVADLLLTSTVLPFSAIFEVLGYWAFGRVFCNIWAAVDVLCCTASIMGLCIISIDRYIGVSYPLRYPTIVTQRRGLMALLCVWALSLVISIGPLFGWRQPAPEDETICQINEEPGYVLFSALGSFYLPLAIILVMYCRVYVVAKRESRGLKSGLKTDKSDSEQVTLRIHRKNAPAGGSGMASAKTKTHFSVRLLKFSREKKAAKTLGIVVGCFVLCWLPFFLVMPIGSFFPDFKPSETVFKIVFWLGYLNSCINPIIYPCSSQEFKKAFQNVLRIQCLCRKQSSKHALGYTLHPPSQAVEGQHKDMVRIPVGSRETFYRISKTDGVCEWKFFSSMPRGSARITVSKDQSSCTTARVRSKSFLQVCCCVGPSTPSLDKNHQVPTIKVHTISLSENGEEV
Assay: Radioligand binding ([3H]prazosin) on membranes of CHO cells expressing cloned α1a adrenoceptor
Settings: human cloned receptor, CHO cell membranes, 0.2 nM [3H]prazosin; read-out: Affinity (Ki) α1a
Procedure: The determination of affinity for cloned subtypes of human α1 adrenergic receptors was performed in membranes from CHO cells (chinese hamster ovary cells) transfected by electroporation with DNA expressing the genes encoding each α1-adrenoceptor subtype, namely α1a, α1b and α1d.. Cloning and stable expression of the human α1-adrenoceptor gene were performed as previously described (Testa et al., Pharmacol. Comm. 6, 79-86 (1995)). CHO cell membranes were incubated in […] Tris pH 7.4 with 0.2 nM [^3H]prazosin, in a final volume of 1.02 ml for 30 minutes at 25°C, in the absence or presence of competing drugs (1 pM-10 µM). Non-specific binding was determined in the presence of 10 µM phentolamine. Incubation was stopped by addition of ice-cold Tris buffer and rapid filtration through 0.2% polyethyleneimine pretreated Schleicher & Schuell GF52 filters. […] The HeLa cells were grown as monolayers in Dulbecco's modified Eagle's medium (DMEM), supplemented with 10% foetal calf serum and gentamicin (100 µg/ml), 5% CO2, at 37°C. […] The inhibition of specific binding of the radioligands by the drugs was analysed to estimate the IC50 value by using the non-linear curve-fitting programme Allfit (De Lean et al., Am. J. Physiol. 235, E97-E102 (1978)). […] Data were expressed as mean of Ki.

COc1ccccc1N1CCN(CCN2C(=O)CC3(CCCC3)CC2=O)CC1 [BMY-7378, reference compound]
Ki: 381 nM

Reference: patent EP1200406B1, “CYCLIC AMIDES AND IMIDES HAVING SELECTIVE ANTAGONIST ACTIVITY AT ALPHA-1D ADRENERGIC RECEPTOR” (RECORDATI INDUSTRIA CHIMICA E FARMACEUTICA S.p.a., priority 1999, dated 2001)
